Earlier results on one compound are cited in patent US12091408B2, “Store overload-induced calcium release inhibitors and methods for producing and using the same” (UTI Limited Partnership, priority 2013, dated 2024).

Structures are written as SMILES.

The data set has as its system skeletal muscle sarcoplasmic reticulum. As to conditions: reported; cited from earlier work.

`Oc1ccc2[nH]c3ccc(Br)cc3c2c1Br`: the “inhibition of Ca2+-induced Ca2+ release (CICR)” value is recorded as “inhibit Ca^2+-induced Ca^2+ release (CICR)”.
